{"source": "patent US20140194479A1", "about": "“COMPOSITIONS AND METHODS FOR TREATING MOOD DISORDERS” (priority 2011, published 2014)", "origin": "cited, not measured here", "system": "IMS Balb/c mice", "conditions": "adolescent treatment; Bhansali et al., 2007; cited from earlier work", "data": [{"smiles": "CNCCC(Oc1ccc(C(F)(F)F)cc1)c1ccccc1", "note": "(stereo not shown) [fluoxetine]", "values": [{"measurement": "abnormal behavior of IMS Balb/c mice in the FST", "value": "effectively reversed"}]}]}
